Compound activity from PubChem BioAssay.
RAD54 branch: RAD54 (human) branch migration inhibition; inhibition, % at 10.4 µM; 360,000 compounds, 0.14% hits; RAD54 Holliday junction branch migration, FAM/BHQ fluorescence; Q92698;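 active = mean normalized replicate activity at least 40 and at least half of replicates scoring 40 or more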;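 note: 0% = median of neutral control wells and 100% = median of positive control wells; inhibitors cause a drop in the FAM fluorescence signal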
RAD52 anneal inh: inhibitors of human RAD52 DNA annealing | P43351 | recombinant RAD52 DNA annealing, FRET fluorescence | inhibition, % at 18.7 µM | 360,000 compounds, 0.46% hits | AID 651710;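 active = every replicate showing at least 50% inhibition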
SIRT5 block: sirtuin-5 (human) deacylase inhibition; Purified SirT5, succinyl-peptide AMC, trypsin-coupled fluorescence; 330,000 compounds, 1.1% hits; inhibition, % at 15 µM; AID 652115; Q9NXA8; in the data active = inhibition above about 15%
MLL AF4-AF9 inh: MLL-AF4/AF9 protein interaction inhibition; P42568; AlphaScreen, biotin-AF4 peptide binding to FLAG-AF9; inhibition, % at 10 µM; 350,000 compounds, 0.47% hits; AID 651704;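 active = every replicate reaching a set inhibition limit, whatever the replicate mean, cut at about 25% in these data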;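 note: 0% = plate neutral control median and 100% = total signal loss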
E-selectin induc: induces E-selectin expression in human endothelial cells. HUVEC E-selectin immunofluorescence imaging; normalized: neutral wells 0, TNF-alpha wells 100. activation, % at 7.58 µM. 260,000 compounds, 0.37% hits;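 active = mean E-selectin-positive cell signal at least 10% of the positive control, reached in at least 60% of replicates, without over 20% cell loss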
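Test system: HUVEC; input: 3,000 HUVEC/well; measured by: immunofluorescence imaging; read-out: % PE-positive cells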
Yeast UUG start: yeast start codon fidelity modulation; activity score, % at 18.7 µM; actives 0.13% (n = 350,000); S. cerevisiae UUG-firefly luciferase reporter, luminescence/redox ratio; AID 602363;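 active means replicate mean at a twofold rise or more, about +100% in these data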;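 further: firefly luciferase made from a UUG start codon reports start codon fidelity; reporter light over untreated wells divided by growth signal over untreated wells; some hits fall short of that in this replicate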
An asterisk follows results filed as active. The list is not random: actives were taken first. Their share in the collection is about 1.8%.

What do the screens show for `C[C@@H]1CN([C@@H](C)CO)C(=O)c2cc(N(C)C)ccc2O[C@@H]1CN(C)Cc1ccc(-c2ccccc2)cc1`?
RAD54 branch: -7; RAD52 anneal inh: 12; SIRT5 block: -1; MLL AF4-AF9 inh: 48*; Yeast UUG start: -6

What do the screens show for `C[C@@H]1CN([C@@H](C)CO)C(=O)c2cc(N(C)C)ccc2O[C@@H]1CN(C)Cc1ccccc1`?
RAD54 branch: 9; RAD52 anneal inh: 4; SIRT5 block: 1; MLL AF4-AF9 inh: 3; E-selectin induc: 0; Yeast UUG start: -18

What do the screens show for `C[C@H](CO)N1C[C@H](C)[C@@H](CN(C)Cc2ccc(-c3ccccc3)cc2)Oc2ccc(N(C)C)cc2C1=O`?
RAD54 branch: -9; RAD52 anneal inh: 4; SIRT5 block: -1; MLL AF4-AF9 inh: 29*; Yeast UUG start: -10

Results for C[C@H](CO)N1C[C@H](C)[C@H](CN(C)Cc2ccc(C(=O)O)cc2)Oc2ccc(N(C)C)cc2C1=O ?
E-selectin induc: -6

How did C[C@@H]1CN([C@H](C)CO)C(=O)c2cc(N(C)C)ccc2O[C@H]1CN(C)Cc1ccc(C(=O)O)cc1 do in these assays?
RAD54 branch: -2; RAD52 anneal inh: -6; SIRT5 block: 1; MLL AF4-AF9 inh: 2; E-selectin induc: 267*; Yeast UUG start: -4

What do the screens show for `C[C@@H]1CN([C@@H](C)CO)C(=O)c2cc(NC(=O)CCC(F)(F)F)ccc2O[C@@H](C)CCCCO[C@H]1CN(C)C(=O)Cc1ccccc1`?
RAD54 branch: -3; Yeast UUG start: 10

What do the screens show for `O=C(Nc1cccc(F)c1)N1C[C@H]2[C@@H](c3ccccc31)[C@@H](CO)N2C(=O)Cc1ccccc1`?
RAD54 branch: 15; RAD52 anneal inh: 2; SIRT5 block: -11; MLL AF4-AF9 inh: 1; E-selectin induc: 0; Yeast UUG start: 3

What do the screens show for `CNC[C@@H]1Oc2ccc(NS(=O)(=O)c3ccccc3)cc2CC(=O)N([C@@H](C)CO)C[C@H]1C`?
RAD54 branch: 3; RAD52 anneal inh: -5; SIRT5 block: 0; MLL AF4-AF9 inh: -3; E-selectin induc: -4

What do the screens show for `COc1ccc(NC(=O)Nc2cccc3c2O[C@@H](CN(C)S(=O)(=O)c2cccs2)[C@@H](C)CN([C@@H](C)CO)C3=O)cc1`?
RAD54 branch: -6; RAD52 anneal inh: -11; SIRT5 block: 0; MLL AF4-AF9 inh: -1; E-selectin induc: 0; Yeast UUG start: 0

Results for C[C@H](CO)N1C[C@H](C)[C@@H](CN(C)C(=O)CC2CC2)Oc2ncc(-c3ccc(C#N)cc3)cc2C1=O ?
RAD54 branch: 4; RAD52 anneal inh: -13; SIRT5 block: 2; MLL AF4-AF9 inh: -2; E-selectin induc: 0; Yeast UUG start: -7

Results for C[C@H]1CN([C@@H](C)CO)C(=O)c2cc(N(C)C)ccc2O[C@H]1CN(C)Cc1ccccc1 ?
RAD54 branch: 2; RAD52 anneal inh: 1; SIRT5 block: 1; MLL AF4-AF9 inh: 0; E-selectin induc: 0; Yeast UUG start: -9

What do the screens show for `C[C@H]1CN([C@@H](C)CO)C(=O)c2cc(N(C)C)ccc2O[C@H]1CN(C)Cc1ccc(-c2ccccc2)cc1`?
RAD54 branch: -3; RAD52 anneal inh: 7; SIRT5 block: -5; MLL AF4-AF9 inh: 33*; Yeast UUG start: -11

What do the screens show for `C[C@H](CO)N1C[C@H](C)[C@H](CN(C)Cc2ccc(-c3ccccc3)cc2)Oc2ccc(N(C)C)cc2C1=O`?
RAD54 branch: -8; RAD52 anneal inh: 15; SIRT5 block: -1; MLL AF4-AF9 inh: 49*; Yeast UUG start: -10

What do the screens show for `C[C@@H]1CCCCO[C@@H](CN(C)Cc2ccc(C(F)(F)F)cc2)[C@H](C)CN([C@H](C)CO)C(=O)c2cc(NC(=O)CCC(F)(F)F)ccc2O1`?
RAD54 branch: -7; RAD52 anneal inh: -32; SIRT5 block: 6; MLL AF4-AF9 inh: 5; E-selectin induc: 0; Yeast UUG start: 10

How did C/C=C/c1ccc([C@@H]2[C@@H](CO)N(C(C)=O)[C@H]2CN(CC)C(=O)CN(C)C)cc1 do in these assays?
RAD54 branch: -8; RAD52 anneal inh: -6; SIRT5 block: -7; MLL AF4-AF9 inh: 0; E-selectin induc: 0; Yeast UUG start: 6

How did Cc1cc(N2CCOCC2)ccc1/C=C1\SC(=O)N(C(C)C)C1=O do in these assays?
RAD54 branch: -4; Yeast UUG start: 6

Compounds from the list above that contain a CF3 group, in the order listed:
What do the screens show for `C[C@@H]1CN([C@@H](C)CO)C(=O)c2cc(NC(=O)CCC(F)(F)F)ccc2O[C@@H](C)CCCCO[C@H]1CN(C)C(=O)Cc1ccccc1`?
RAD54 branch: -3; Yeast UUG start: 10

What do the screens show for `C[C@@H]1CCCCO[C@@H](CN(C)Cc2ccc(C(F)(F)F)cc2)[C@H](C)CN([C@H](C)CO)C(=O)c2cc(NC(=O)CCC(F)(F)F)ccc2O1`?
RAD54 branch: -7; RAD52 anneal inh: -32; SIRT5 block: 6; MLL AF4-AF9 inh: 5; E-selectin induc: 0; Yeast UUG start: 10
